Data taken from patent US20210024625A1 (published 2021).

What was measured:
Assay in all cases: cell-based or functional assay
[1] = target: PfRH5 from Plasmodium falciparum strain Dd2 (Plasmodium falciparum)
[2] = target: PfRH5 from Plasmodium falciparum strain D10 (Plasmodium falciparum)
[3] = target: PfRH5 from Plasmodium falciparum strain 7G8 (Plasmodium falciparum)

B1: H1H29149P2 (antibody, V domains shown)
VH: QVQLQESGPGLVKPSQTLSLTCTVSGGSISSGGYYWNWIRQHPGKGLEWIGYIYYSGSTYYNPSLKSRVTISVDTSKNQFSLKLGSVTAADTAVYYCARAPPYNWFDYWGQGTLVTVSS
VL: not shown
- Max growth inhibition (%) [1]: 50.3%

B2: H1H29163P2 (antibody, V domains shown)
VH: QVQLVQSGAEVKKPGASVKVSCKTSGYTFTAYYIHWVRQAPGQGLEWMGWINPNNGDTNYALRFQGRVTMTRDMSINTAYMELRGLRSDDTAVYYCARDDLAAAGIGWFDSWGQGTLVTVSS
VL: not shown
- Max growth inhibition (%) [2]: 71.8%

B3: H1H29187P2 (antibody, V domains shown)
VH: QVQLVESGGGVVQPGRFLRLSCAASGFTFSNSGMHWVRQAPGKGLEWVAGIWHDGSYKYYVDSVKGRFTISRDNSKNTLFLQMNSLRAEDTAVYYCARDDYYASGTSVDVWGQGTTVTVSS
VL: not shown
- Max growth inhibition (%) [3]: 71.8%
